Data published in US20220354957A1, “PEPTIDES TARGETING MACROPHAGES, AND CONJUGATES, COMPOSITIONS, AND USES THEREOF” (Twinpig Biolab, Inc., priority 2021, published 2022).

Experiments:
[1] = system: THP-1-derived M2 macrophages; test: Affinity test of FITC-conjugated peptides by flow cytometry; type: cell-based, human; conditions: FITC-conjugated peptide, 50 nM, 1 h, FACS
Procedure: THP-1 monocytes were differentiated into macrophages by 24 h incubation with 100 nM phorbol 12-myristate 13-acetate (PMA, Sigma) followed by 24 h incubation in RPMI medium (Invitrogen). Macrophages were polarized in M1 macrophages (M1) by incubation with 20 ng/ml of IFN-γ (Prospec) and 100 ng/ml of LPS (Sigma). Macrophage M2 polarization(M2) was obtained by incubation with 20 ng/ml of interleukin (IL) 4 (Prospec) and 20 ng/ml of interleukin 13 (Prospec). M2-like tumor-associated macrophages were polarized by incubation with 20% conditioned medium of PC3 cells.
THP-1 cells were differentiated into macrophages by a 24 h incubation with 100 nM PMA and polarized in M2 macrophages by incubation with 20 ng/ml of IL-4 and 20 ng/ml of IL-13 for 72 h. Polarized cells were treated with 50 nM TAMpep and fragments of TAMpep or Mpep and alanine library of Mpep conjugated with FITC for 1 h. To test change of macrophage population in melanoma tissue, the single cells were isolated from tumor tissue through a 40 μm nylon mesh strainer after dissociation by DNase I (1 U/mL) and collagenase D (1 mg/ml). Cells were detected on BD FACSCalibur and BD FACSCantoII instruments and analyzed by FlowJo software.

[2] = Cytotoxicity assay (CCK-8 cell viability); type: cell-based; conditions: human, THP-1-derived M2 macrophages
Procedure: THP-1 cells were differentiated into macrophages by 24 h incubation with 100 nM PMA and polarized in M2 macrophages by incubation with 20 ng/ml of IL-4 and 20 ng/ml of IL-13 for 72 h. Polarized cells were treated with increasing concentrations of TAMpep and fragments of TAMpep (0.05-20 μM) for 24 h. Cell viability was analyzed using the CCK-8 assay: CCK-8 reagent (Enzo Life Sciences) was added to each well; incubation was continued for 2 hours, and absorbance was measured at 450 nm with a microplate reader (Molecular Devices).

mouse RBC = test: Hemolytic activity assay; type: cell-based; conditions: 0.1-50 μM, 37° C., 1 h, read-out: hemolysis IC50
Procedure: Mouse blood samples were collected in tubes containing heparin as an anticoagulant and stored at 4 ° C. before use. Whole blood sample were centrifuged at 1,500×g for 5 min and the resulting plasma fraction was removed from the samples. The pellets were washed with an equal volume of saline, mixing by inversion. The centrifuging and washing steps were repeated 5 times. Red blood cells were counted by a hemocytometer and adjusted to […]. Red blood cells were then incubated at 37° C. for 1 h in 1% Triton X-100 (positive control), in PBS (blank), or with increasing concentrations of TAMpep and Mpep (0.1-50 μM) were evaluated. The samples were then centrifuged at 10,000 g for 5 min, the supernatant was separated from the pellet, and its absorbance measured at 570 nm. The relative optical density compared to that of the suspension treated with 1% Triton X-100 was defined as the percentage of hemolysis.

CC[C@H](C)[C@H](NC(=O)CN)C(=O)NCC(=O)N[C@@H](C)C(=O)N[C@H](C(=O)N[C@@H](CC(C)C)C(=O)N[C@@H](CCCCN)C(=O)N[C@H](C(=O)N[C@@H](CC(C)C)C(=O)N[C@H](C(=O)N[C@H](C(=O)NCC(=O)N[C@@H](CC(C)C)C(=O)N1CCC[C@H]1C(=O)N[C@@H](C)C(=O)N[C@@H](CC(C)C)C(=O)N[C@H](C(=O)N[C@@H](CO)C(=O)N[C@@H](Cc1c[nH]c2ccccc12)C(=O)N[C@H](C(=O)N[C@@H](CCCCN)C(=O)N[C@@H](CCCNC(=N)N)C(=O)N[C@@H](CCCCN)C(=O)N[C@@H](CCCNC(=N)N)C(=O)N[C@@H](CCC(N)=O)C(=O)N[C@@H](CCC(N)=O)C(N)=O)[C@@H](C)CC)[C@@H](C)CC)[C@@H](C)O)[C@@H](C)O)C(C)C)C(C)C [TAMpep, reference compound]
affinity in M2 macrophages [1]: over 90% | IC50 at 24 h [2]: 0.815 µM | IC50 (mouse RBC): 6.67 µM
